Values quoted from earlier work in US8980904B2, “Heterocyclic substituted pyrimidine compound” (Xuanzhu Pharma Co., Ltd., priority 2011, dated 2015).

Sequences of proteins named here, by UniProt entry; tags and fusion partners are left off. A change or cut given only in a name is not applied to a line headed by its entry.
UniProt Q9HCR9: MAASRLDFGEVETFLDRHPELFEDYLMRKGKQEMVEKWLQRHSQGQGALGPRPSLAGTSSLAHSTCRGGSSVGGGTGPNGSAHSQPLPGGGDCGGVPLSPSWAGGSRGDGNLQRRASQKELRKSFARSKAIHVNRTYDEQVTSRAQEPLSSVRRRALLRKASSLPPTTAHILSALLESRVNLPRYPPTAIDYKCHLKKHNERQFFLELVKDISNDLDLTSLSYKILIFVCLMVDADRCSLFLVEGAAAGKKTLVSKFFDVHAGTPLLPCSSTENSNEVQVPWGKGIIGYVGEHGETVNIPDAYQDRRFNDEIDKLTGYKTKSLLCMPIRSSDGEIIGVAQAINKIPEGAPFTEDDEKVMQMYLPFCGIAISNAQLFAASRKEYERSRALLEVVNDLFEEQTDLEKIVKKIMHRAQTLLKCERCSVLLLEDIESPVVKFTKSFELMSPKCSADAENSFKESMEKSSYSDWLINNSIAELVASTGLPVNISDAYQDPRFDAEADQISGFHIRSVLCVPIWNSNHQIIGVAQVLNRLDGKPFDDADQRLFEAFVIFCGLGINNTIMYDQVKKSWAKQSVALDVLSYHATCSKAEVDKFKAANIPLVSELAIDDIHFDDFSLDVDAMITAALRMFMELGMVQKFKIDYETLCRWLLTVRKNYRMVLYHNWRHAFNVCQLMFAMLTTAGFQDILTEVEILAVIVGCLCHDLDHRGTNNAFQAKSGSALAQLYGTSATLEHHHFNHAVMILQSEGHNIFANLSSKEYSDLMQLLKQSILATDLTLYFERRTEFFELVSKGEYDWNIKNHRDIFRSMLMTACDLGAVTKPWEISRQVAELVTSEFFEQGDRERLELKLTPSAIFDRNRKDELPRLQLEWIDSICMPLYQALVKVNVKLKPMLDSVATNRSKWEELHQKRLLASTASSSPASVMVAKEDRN

Biological target: PDE-11 (Homo sapiens (Human), UniProt Q9HCR9)
Details: background art; cited from earlier work

Compound: CN1CC(=O)N2[C@H](c3ccc4c(c3)OCO4)c3[nH]c4ccccc4c3C[C@@H]2C1=O [Tadalafil]
- inhibition of PDE-11: inhibition effects on PDE-11 to some extent
